This is an account of results in paper PMC6013267 (Medicinal chemistry research : an international journal for …, 2018).

By UniProt entry, the sequences of proteins in these tests, tags left out. Residues count along the entry.
UniProt P09483, 31-630: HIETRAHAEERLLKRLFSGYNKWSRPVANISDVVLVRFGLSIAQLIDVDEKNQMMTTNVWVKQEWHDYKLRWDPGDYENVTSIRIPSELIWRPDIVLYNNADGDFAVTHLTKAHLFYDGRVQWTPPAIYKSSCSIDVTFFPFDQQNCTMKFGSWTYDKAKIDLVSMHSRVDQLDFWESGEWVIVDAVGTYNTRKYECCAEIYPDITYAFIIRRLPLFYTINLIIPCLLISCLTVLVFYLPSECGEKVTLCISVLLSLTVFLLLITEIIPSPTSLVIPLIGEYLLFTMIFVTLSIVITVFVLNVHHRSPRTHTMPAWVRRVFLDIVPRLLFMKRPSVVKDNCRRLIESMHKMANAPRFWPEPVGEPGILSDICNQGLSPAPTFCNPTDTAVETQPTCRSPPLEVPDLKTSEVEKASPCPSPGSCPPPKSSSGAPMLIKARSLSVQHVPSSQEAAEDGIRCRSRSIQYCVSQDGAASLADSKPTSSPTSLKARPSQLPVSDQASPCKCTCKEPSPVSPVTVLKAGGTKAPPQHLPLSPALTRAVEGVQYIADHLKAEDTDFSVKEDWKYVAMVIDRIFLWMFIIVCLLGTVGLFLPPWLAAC
UniProt P12390, 25-500: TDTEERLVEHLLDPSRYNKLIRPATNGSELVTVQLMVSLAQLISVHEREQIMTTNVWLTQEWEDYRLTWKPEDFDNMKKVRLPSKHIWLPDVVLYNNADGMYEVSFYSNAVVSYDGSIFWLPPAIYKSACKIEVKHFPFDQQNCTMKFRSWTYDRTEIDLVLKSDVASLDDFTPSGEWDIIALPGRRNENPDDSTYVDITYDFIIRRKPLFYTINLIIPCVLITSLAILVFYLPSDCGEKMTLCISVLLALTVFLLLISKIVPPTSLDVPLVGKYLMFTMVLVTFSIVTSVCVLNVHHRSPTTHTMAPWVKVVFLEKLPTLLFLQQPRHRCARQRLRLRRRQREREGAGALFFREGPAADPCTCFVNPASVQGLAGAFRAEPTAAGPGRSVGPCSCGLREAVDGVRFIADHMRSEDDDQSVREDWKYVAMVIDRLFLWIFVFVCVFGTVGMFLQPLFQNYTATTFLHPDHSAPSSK

In this assay the target is α4β2* nAChRs (Rattus norvegicus, UniProt P09483+P12390). The note with it: read-out: IC50, [3H]cytisine displacement, rat brain slices.

Read-outs that look alike come from different tables or passages of the source.

“5-(3-methoxy-4-propyloxycinnamate)-3-(2-(S)-pyrrolidinylmethoxy)pyridine [GKS-007]”: the IC50 is 3.18 nM (frontal cortex), 5.4 nM (subiculum) and 3.44 nM (thalamus).
Consider “5-(3′-Ethyl 3-methoxy-4-propyloxycinnamate)-3-(2-(S)-pyrrolidinylmethoxy)pyridine [GKS-006]”, for which the IC50 stood at 5.33 nM (frontal cortex), 2.83 nM (subiculum) and 2.8 nM (thalamus).
